## Yeast mating assay 1: variants of the scFv Ab-14

From the AlphaSeq antibody data of Engelhart et al. 2022 (doi:10.1038/s41597-022-01779-4), copy in the FLAb collection.

Target peptide (SARS-CoV-2 spike, HR2 region): PDVDLGDISGINAS

Each scFv is VH, a 15-residue (Gly4Ser)3 linker, VL, as in the parent Ab-14, and differs from it in the CDRs of the light chain only.
VH: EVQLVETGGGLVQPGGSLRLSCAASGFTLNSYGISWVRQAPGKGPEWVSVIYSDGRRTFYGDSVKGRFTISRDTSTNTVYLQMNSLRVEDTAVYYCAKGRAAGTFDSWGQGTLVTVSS
VL: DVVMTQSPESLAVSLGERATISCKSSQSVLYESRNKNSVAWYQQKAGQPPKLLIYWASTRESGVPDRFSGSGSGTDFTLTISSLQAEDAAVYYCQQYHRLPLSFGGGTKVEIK

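The parent was found by panning a naive human phage display library on the peptide. In library AAYL50, one, two or three CDR residues were substituted; doubles and triples were drawn at random. In AlphaSeq, yeast of one mating type display the scFv and yeast of the other type display the target. Pairs that bind mate more often; barcode pairs of the diploids are counted by sequencing. Read counts were normalised to the haploid input and turned into Kd by a linear fit to BCL2-family pairs of known affinity, for each replicate. Each pool was mated in three replicate cultures.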

Substitutions are numbered in sequence along the VL above, starting at 1 (not Kabat). All variants listed here change S33 of the VL, counted from its first residue. The read-out is the apparent dissociation constant on a log10 scale (nM): the lower, the stronger. The mean shown is taken over the replicates in which the pair was detected. "nd" means that the variant was in the library but no mating with the target was seen in any replicate; the authors take this as a sign of poor binding, and no number exists. Order: sorted from the lowest average up, undetected variants last.

With S33L/R34D/S103P the result was 0.56 (3 of 3 replicates; controls 3 of 9). For S33A, the assay gave 0.78 (3 of 3 replicates; controls 0 of 9). Variant Y31N/S33P/R60I gave 0.84 (3 of 3 replicates; controls 1 of 9). Variant S26A/S33D/N35C gave 0.93 (3 of 3 replicates; controls 0 of 9). With S28N/S33L the result was 1.31 (3 of 3 replicates; controls 2 of 9).

Variant S28P/S33Q/Y97K gave 1.38 (3 of 3 replicates; controls 0 of 9). With S33M the result was 1.43 (3 of 3 replicates; controls 0 of 9). For S33F/K36S, the assay gave 1.46 (3 of 3 replicates; controls 2 of 9). With Y31F/S33F/S62H the result was 1.48 (3 of 3 replicates; controls 0 of 9). Variant S33M/Q96A/S103H gave 1.49 (3 of 3 replicates; controls 3 of 9).

With V29D/S33I/N37W the result was 1.75 (3 of 3 replicates; controls 0 of 9). Variant E32A/S33H/Q95P showed 1.84 (3 of 3 replicates; controls 3 of 9). With Q27L/S33H/N35H the result was 2.01 (3 of 3 replicates; controls 5 of 9). Variant S25P/S26H/S33A gave 2.04 (3 of 3 replicates; controls 0 of 9). Variant S33T/T59C gave 2.05 (3 of 3 replicates; controls 5 of 9).

Variant K24N/V29R/S33G showed 2.15 (3 of 3 replicates; controls 2 of 9). With K24Y/S28R/S33P the result was 2.16 (3 of 3 replicates; controls 2 of 9). For S33L/S58G/L100C, the assay gave 2.29 (3 of 3 replicates; controls 0 of 9). Variant S33E/S58Y/H98E showed 2.38 (3 of 3 replicates; controls 1 of 9). Variant S33K/S58G/E61A gave 2.46 (3 of 3 replicates; controls 0 of 9).

With Q27E/S33N/E61K the result was 2.60 (3 of 3 replicates; controls 4 of 9). With S33K/Q95D the result was 2.68 (3 of 3 replicates; controls 2 of 9). Variant S33K/A57L/R60N gave 2.76 (1 of 3 replicates; controls 0 of 9). With S33R/W56K/E61P the result was 2.76 (1 of 3 replicates; controls 2 of 9). For K24W/S33P/R34A, the assay gave 2.81 (3 of 3 replicates; controls 0 of 9).

For S33F/S38W/L102P, the assay gave 2.82 (1 of 3 replicates; controls 0 of 9). With S26H/S33R/S103H the result was 3.12 (3 of 3 replicates; controls 0 of 9). For S33V/S103K, the assay gave 3.65 (2 of 3 replicates; controls 0 of 9). Variant S33I/Q95R/S103M gave 3.91 (1 of 3 replicates; controls 3 of 9). For S33I/A57F/S62F, the assay gave 4.35 (2 of 3 replicates; controls 7 of 9).

For K24W/S33N/A40F, the assay gave 4.41 (3 of 3 replicates; controls 7 of 9). With S33P/W56A/S62A the result was 4.49 (3 of 3 replicates; controls 5 of 9). With E32R/S33R/L102R the result was 4.84 (1 of 3 replicates; controls 2 of 9). Variant K24C/S33T/Q95I showed 5.26 (1 of 3 replicates; controls 1 of 9). For K24F/S33E/Y97V, the assay gave 5.58 (2 of 3 replicates; controls 2 of 9).

Variant E32W/S33K/N35Y showed nd (0 of 3 replicates; controls 0 of 9). With Q27Y/S33A/R60G the result was nd (0 of 3 replicates; controls 0 of 9). For S33H/V39D/Y97P, the assay gave nd (0 of 3 replicates; controls 0 of 9). Variant S33R/N35I/A57N showed nd (0 of 3 replicates; controls 1 of 9). For V29W/S33W/A57N, the assay gave nd (0 of 3 replicates; controls 1 of 9).

With S33F/Y97H the result was nd (0 of 3 replicates; controls 1 of 9). For S33T/A57Y/P101N, the assay gave nd (0 of 3 replicates; controls 0 of 9). With S33D/R34H/S103E the result was nd (0 of 3 replicates; controls 0 of 9). Variant S33N/S58I/Q95M showed nd (0 of 3 replicates; controls 0 of 9). Variant S33R/S38G/S103Y gave nd (0 of 3 replicates; controls 1 of 9).

Variant S33N/S58V/L102Q showed nd (0 of 3 replicates; controls 3 of 9).

Extract of 7 entries:

{"changes": "K24F/S33E/Y97V", "log10 Kd (nM), mean": "5.58", "seen in": "2 of 3", "signal with controls": "2 of 9"}
{"changes": "E32W/S33K/N35Y", "log10 Kd (nM), mean": "nd", "seen in": "0 of 3", "signal with controls": "0 of 9"}
{"changes": "V29D/S33I/N37W", "log10 Kd (nM), mean": "1.75", "seen in": "3 of 3", "signal with controls": "0 of 9"}
{"changes": "S33M/Q96A/S103H", "log10 Kd (nM), mean": "1.49", "seen in": "3 of 3", "signal with controls": "3 of 9"}
{"changes": "S33R/W56K/E61P", "log10 Kd (nM), mean": "2.76", "seen in": "1 of 3", "signal with controls": "2 of 9"}
{"changes": "S28N/S33L", "log10 Kd (nM), mean": "1.31", "seen in": "3 of 3", "signal with controls": "2 of 9"}
{"changes": "S33N/S58V/L102Q", "log10 Kd (nM), mean": "nd", "seen in": "0 of 3", "signal with controls": "3 of 9"}

In this assay the parent's reference entry averaged 0.65; its copy inside this library read 1.68. Nonspecific signal, from three strains lacking the peptide, appeared in 18% of pairings of library AAYL50, centred on 4.19 (5% of these signals below 2.99); values are not corrected for it. For each scFv, signals with the empty controls are counted beside the result.